# In US20240376151A1, “STAPLED PEPTIDES AND METHODS THEREOF” (FOG PHARMACEUTICALS, INC., priority 2022, published 2024):
# Tests used:
# Expi293 cells [1] = test: Measurement of the Cell Association of Helicons (mass spectrometry quantification in cells after treatment and wash); format: cell-based; conditions: percentage of Helicons in cells after treatment and wash, 22 hours, n = 2, mean ± SD
# Experimental: All samples were analyzed using mass spectrometry.
# Expi293 cells [2] = test: CellTiter-Glo cell health (ATP levels) during cell association assay; format: cell-based; conditions: reflective of cell health, luminescence Tfinal (22 hours) / Tinitial
Compound,Helicon in cells ± SD (%) (Expi293 cells [1]),CellTiter-Glo fold change ± SD (Expi293 cells [2])
"CC[C@H](C)[C@H](NC(C)=O)C(=O)N[C@@H](CC(C)C)C(=O)N[C@H](C(=O)N[C@]1(C)CCCCCCC=CCCC[C@@](C)(C(=O)N[C@@H](CCC(N)=O)C(=O)N[C@@H](Cc2ccc(O)cc2)C(=O)N[C@@H](CCC(N)=O)C(N)=O)NC(=O)[C@H]([C@@H](C)O)NC(=O)[C@H](Cc2ccccc2)NC(=O)[C@H](C)NC(=O)[C@H](C)NC(=O)[C@H](CCC(=O)O)NC(=O)[C@H](Cc2ccc(O)cc2)NC1=O)[C@@H](C)O (single isomer, unassigned) [FP08029, Ac-Ile-Leu-Thr-R8-Tyr-Glu-Ala-Ala-Phe-Thr-S5-Gln-Tyr-Gln-NH2]",0.2 ± 0.0%,1.1 ± 0.03
"CC[C@H](C)[C@H](NC(C)=O)C(=O)N[C@@H](CC(C)C)C(=O)N[C@H](C(=O)N[C@]1(C)CCCCCCC=CCCC[C@@](C)(C(=O)N[C@@H](CCC(N)=O)C(=O)N[C@@H](Cc2ccc(O)cc2)C(=O)N[C@@H](CCC(N)=O)C(N)=O)NC(=O)[C@H]([C@@H](C)O)NC(=O)[C@H](Cc2ccccc2)NC(=O)[C@H](C)NC(=O)[C@H](C)NC(=O)[C@H](CCC(=O)O)NC(=O)[C@H](Cc2ccc(O)cc2)NC1=O)[C@@H](C)O (single isomer, unassigned) [FP08030, Ac-Ile-Leu-Thr-R8-Tyr-Glu-Ala-Ala-Phe-Thr-S5-Gln-Tyr-Gln-NH2]",0.3 ± 0.0%,1.2 ± .02
